How the values were obtained:
[1] = system: PC3; assay: In vitro cytotoxicity assay, PC3; format: cell-based
[2] = system: SKOV3; assay: In vitro cytotoxicity assay, SKOV3; format: cell-based, human

Row | Substance | cytotoxic activity in words [1] | EC50 PC3 ([1]; Table 5, positional 4D5-AF ADCs) | cytotoxic activity in words [2]
1 | Herceptin-CUAAC-AF ADC | did not show cytotoxicity at the examined concentrations |  | 
2 | Herceptin | no cytotoxic effect | DNC | 
3 | Herceptin-SPAAC-AF ADC | did not show cytotoxicity at the examined concentrations |  | efficiently killed by the ADC

Source: patent US9732367B2, “Cell lines” (MEDIMMUNE LIMITED, priority 2012, dated 2017)
